Literature values in patent publication US20090326196A1 (Trustees of Tufts College, priority 2006, published 2009).

Test system: dipeptidyl peptidase IV (DPP IV, EC 3.4.14.5)
Conditions: cited from earlier work

In the case of HAEGTFTSDVSSYLEGQAAKEFIAWLVKGR, the cleaved bond is listed as “Ala8-Glu9”.
